# Results taken from patent publication US20140235578A1, “METHODS FOR TREATING NEOPLASIA AND FOR IDENTIFYING COMPOSITIONS USEFUL IN SUCH THERAPY” (priority 2007, published 2014).
# Amino acid sequences for entries named in this document (tags omitted). A change or cut given only in a name is not applied to a line headed by its entry.
# UniProt P11388: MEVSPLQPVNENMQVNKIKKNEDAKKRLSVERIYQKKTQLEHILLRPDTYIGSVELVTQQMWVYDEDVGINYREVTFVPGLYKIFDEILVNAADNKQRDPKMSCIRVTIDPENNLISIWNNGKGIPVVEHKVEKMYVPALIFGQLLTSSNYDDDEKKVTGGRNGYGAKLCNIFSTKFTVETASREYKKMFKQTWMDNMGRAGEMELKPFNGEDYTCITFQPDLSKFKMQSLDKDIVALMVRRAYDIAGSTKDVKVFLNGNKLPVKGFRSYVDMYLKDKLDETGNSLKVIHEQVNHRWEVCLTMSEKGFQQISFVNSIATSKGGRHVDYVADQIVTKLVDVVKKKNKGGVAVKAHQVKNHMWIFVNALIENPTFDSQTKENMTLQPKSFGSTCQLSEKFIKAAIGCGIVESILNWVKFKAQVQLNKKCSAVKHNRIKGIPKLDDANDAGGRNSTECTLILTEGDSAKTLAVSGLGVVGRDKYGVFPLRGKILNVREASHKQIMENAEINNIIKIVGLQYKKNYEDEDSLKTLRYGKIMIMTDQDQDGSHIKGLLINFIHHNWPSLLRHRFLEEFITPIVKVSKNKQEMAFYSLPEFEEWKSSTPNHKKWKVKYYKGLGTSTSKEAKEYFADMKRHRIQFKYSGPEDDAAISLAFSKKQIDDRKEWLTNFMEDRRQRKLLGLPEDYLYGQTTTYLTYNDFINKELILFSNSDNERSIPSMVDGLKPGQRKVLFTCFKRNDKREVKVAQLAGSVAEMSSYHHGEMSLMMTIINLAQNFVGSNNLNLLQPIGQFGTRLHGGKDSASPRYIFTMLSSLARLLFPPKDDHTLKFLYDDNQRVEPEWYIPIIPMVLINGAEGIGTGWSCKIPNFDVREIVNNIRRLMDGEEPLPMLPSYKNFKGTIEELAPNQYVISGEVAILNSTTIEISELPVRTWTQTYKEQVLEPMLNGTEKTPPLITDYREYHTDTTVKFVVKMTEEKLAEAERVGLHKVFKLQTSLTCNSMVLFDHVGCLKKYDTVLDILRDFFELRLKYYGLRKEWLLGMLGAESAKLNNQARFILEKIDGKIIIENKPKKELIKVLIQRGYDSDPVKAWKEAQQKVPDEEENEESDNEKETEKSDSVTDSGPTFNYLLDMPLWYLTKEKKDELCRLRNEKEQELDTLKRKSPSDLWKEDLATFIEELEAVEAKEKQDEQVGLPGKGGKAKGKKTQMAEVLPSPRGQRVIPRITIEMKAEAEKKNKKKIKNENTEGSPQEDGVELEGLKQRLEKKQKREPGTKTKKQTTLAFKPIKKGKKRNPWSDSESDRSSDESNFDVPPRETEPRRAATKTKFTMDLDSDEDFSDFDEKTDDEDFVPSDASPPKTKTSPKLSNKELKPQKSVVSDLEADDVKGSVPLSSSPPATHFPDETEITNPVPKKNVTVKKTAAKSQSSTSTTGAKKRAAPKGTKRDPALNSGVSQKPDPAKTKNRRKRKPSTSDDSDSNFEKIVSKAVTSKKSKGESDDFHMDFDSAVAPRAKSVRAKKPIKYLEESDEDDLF
# Molecular target: purified recombinant human Top2α (Homo sapiens, UniProt P11388)
# Assay: In vitro DNA cleavage assay (Bodley et al.), Top2α
# Type: biochemical
# Method: Various β-carboline derivatives of compounds of Formula I above were evaluated for their antineoplastic activities and for their ability to preferentially poison Top2 isozymes. These compounds (i.e. those in Table 1 below) were also evaluated for Top2 isozyme-specific poisoning using the in vitro DNA cleavage assay described by Bodley et al. In the studies, purified recombinant human Top2 isozymes were used.
# Reactions were terminated with SDS (final 1%) and digested with proteinase K (100 μg/ml at 50° C. for 1 hr). After adding gel loading solution, the reaction mixtures were analyzed by agarose gel electrophoresis. Gel was dried and exposed to x-ray films for visualization.
# In certain preferred embodiments, the methods for identifying Top2α preferential poisons include using in vitro DNA cleavage assays. […] In this assay, the ability of various Top2 poisons to induce Top2 isozyme-mediated DNA cleavage of ^32P end-labeled linearized plasmid DNA was assessed. Thus, the relative specificity of various Top2 poisons against Top2 isozymes can be qualitatively determined based on the depletion of band intensities and/or the intensities of bands representing the cleavage products.
compound,measurement,value
"COc1cc([C@@H]2c3cc4c(cc3[C@@H](O[C@@H]3O[C@@H]5CO[C@@H](C)O[C@H]5[C@H](O)[C@H]3O)[C@H]3COC(=O)[C@H]23)OCO4)cc(OC)c1O [VP16, etoposide]",preference of poisoning Top2α versus Top2β,non-preferentially; also recorded: equally

# “Also recorded” adds a separate entry of the source.
